# From ChEMBL document CHEMBL5329224, “Structure-Based Design and Evaluation of Reversible KRAS G13D Inhibitors” (ACS Med Chem Lett, 2024)
# Assay: Selectivity ratio of IC50 for inhibition of Biotinylated KRAS G13D mutant (unknown origin) to IC50 for inhibition of Biotinylated wild type KRAS (unknown origin)
row,Ratio IC50,Structure (SMILES)
1,6.7,C=C1CN2CCC[C@@]2(COc2nc3c4c(c(Cl)c(-c5nc(N)cc(C)c5C(F)(F)F)c(F)c4n2)OC[C@@H]2CN(C(=O)/C=C/c4nccc5c4CNCC5)CCN32)C1
2,11,C=C1CN2CCC[C@@]2(COc2nc(N3CCN(C(=O)/C=C/c4cccc5c4CNCC5)C[C@@H]3C)c3cc(Cl)c(-c4nc(N)cc(C)c4C(F)(F)F)c(F)c3n2)C1
